US20210187115A1, “Immunoconjugates Targeting EGFR” (Bolt Biotherapeutics, Inc., priority 2018, published 2021)

System: COLO 205 tumor cells
Assay: humanized mouse model with COLO 205 colorectal tumor xenograft and human PBMCs
Assay type: in vivo
Conditions: COLO 205 xenograft admixed with NK-depleted human PBMCs in immunodeficient mice; systemic treatment started 4 days after inoculation; FIG. 1
Procedure: This example employed a humanized mouse model, in which immunodeficient mice are simultaneously engrafted with human peripheral blood mononuclear cells (“PBMCs”) and a human tumor xenograft. PBMCs from healthy donors were isolated and depleted of NK cells. A human tumor model for colorectal cancer, COLO 205, was utilized, as this tumor is known to highly express the tumor antigen EGFR, enabling the use of the clinical monoclonal antibody cetuximab. The COLO 205 tumor cells were prepared as follows.
The COLO 205 tumor cells were maintained in vitro in RPMI-1640 medium supplemented with 10% fetal bovine serum at 37° C. in an atmosphere of 5% CO2 in air. The cells in exponential growth phase were harvested and quantitated by cell counter before tumor inoculation.
PBMCs were isolated from blood of two healthy donors by density gradient centrifugation using standard procedures. […]
Tumor volumes were measured twice per week after randomization in two dimensions using a caliper, and the volume was expressed in mm^3 using the formula: “V=(L×W×W)/2, where V is tumor volume, L is tumor length (the longest tumor dimension) and W is tumor width (the longest tumor dimension perpendicular to L). […] The body weights and tumor volumes were calculated using STUDYDIRECTOR™ software (version 3.1.399.19).

## cetuximab
  tumor volume (control of tumor growth): not sufficient for control of tumor growth
